Assay results reported in PubChem BioAssay AID1272365 (Small Molecule Screening Facility, UW Madison, 2020).
“And” between values parts separate entries of the source, which are not always exact repeats. Identical values can stand only once. The list shows a part of the results, in another mix than the full data. The source made the active and inactive calls. No stated cut-off is given here; in the data, active means inhibition mostly above about 37% (no sharp cut-off); inactive means mostly below about 20%.

The molecules below were run on PriA–SSB C-terminal tail interaction (Klebsiella pneumoniae) (assay: inhibitors of Klebsiella pneumoniae PriA binding to SSB C-terminal tail, primary screen, biochemical, AlphaScreen (AID 1272365;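 further: plate controls were negative control peptide for no effect and reference peptide for full effect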)). Conditions: AlphaScreen SSBct-PriA binding, biotinylated peptide; at 33 µM; hits give high values.
With `CC(=O)Nc1ccc([As](=O)(O)O)c(O)c1` the inhibition was inactive: -5.21%. `CC(=O)Nc1ccc(Oc2c([N+](=O)[O-])cc([N+](=O)[O-])cc2[N+](=O)[O-])cc1` was tested, and the inhibition was inactive: -11.1%. `O=P1(Nc2nc3ccc(Cl)cc3s2)COc2ccccc2O1` (stereo not given) was tested, and the inhibition was inactive: -8.11%. `CCOc1ccc(C2=NCC(CBr)S2)cc1` (stereo not given) was tested, and the inhibition was inactive: -3.32%. `CCc1cc(O)c([N+](=O)[O-])c(C)c1[N+](=O)[O-]` was tested, and the inhibition was inactive: -4.57%. With `CC(C)(C)C(=O)NC(Sc1ccccc1)C(Cl)(Cl)Cl` (stereo not given) the inhibition was inactive: -24.7%. With `COC(=O)c1cc2c(s1)N=C(c1ccccc1)N(C)P2(=O)N1CCOCC1` (stereo not given) the inhibition was inactive: 1.51%. For `CC(=O)NC(SC(=S)N(CC(C)C)CC(C)C)C(Cl)(Cl)Cl` (stereo not given), the inhibition was inactive: 15.3%. For `Cc1ccc(OP(=O)(Nc2ccccn2)Oc2ccc(C)cc2)cc1`, the inhibition was inactive: -25.8%. `O=C(OC1CN2CCC1CC2)c1ccccc1` (stereo not given) was tested, and the inhibition was inactive: -10.3%. With `CCC(=O)N1C2C3N(C(=O)CC)C1C1N(C(=O)CC)C(C(N1C(=O)CC)N3C(=O)CC)N2C(=O)CC` the inhibition was inactive: -6.34%. `Cc1ccccc1OP(=O)(Nc1ccccn1)Oc1ccccc1C` was tested, and the inhibition was inactive: -1.29%. `CC(NC(=O)COC(=O)C(O)(c1ccccc1)c1ccccc1)c1ccccc1` (stereo not given) was tested, and the inhibition was inactive: -6.72%. In the case of `CN(C)C(=O)Oc1noc2ccccc12`, the inhibition is reported as inactive: -9.16%. `O=c1c2cc([N+](=O)[O-])ccc2[nH]c2c([N+](=O)[O-])cc([N+](=O)[O-])cc12` was tested, and the inhibition was inactive: -7.91%. In the case of `O=C(NC1CCS(=O)(=O)C1)NP(=S)(Oc1ccccc1)Oc1ccccc1` (stereo not given), the inhibition is reported as inactive: -31.8%. For `Cc1cc(NC(=O)COC(=O)C2(O)c3ccccc3-c3ccccc32)no1`, the inhibition was inactive: -2%. With `c1ccc(-c2nn[nH]n2)c(-c2nn[nH]n2)c1` the inhibition was active: 72.8%. With `Cc1ccc(NP(=O)(Oc2cccc(C)c2)Oc2cccc(C)c2)nc1` the inhibition was inactive: -20.9%. For `O=P1(N(CCCl)CCCl)OCCC2CCCCN21` (stereo not given), the inhibition was inactive: -10.5%. `NC(=O)Nc1ccc([As](=O)(O)O)cc1` was tested, and the inhibition was inactive: -19.3%. `CN(C)C(=O)c1cc([N+](=O)[O-])cc2c1-c1c(cc([N+](=O)[O-])cc1[N+](=O)[O-])C2=O` was tested, and the inhibition was inactive: 9.29%. `O=[N+]([O-])c1ccc2c(c1)nnn2O` was tested, and the inhibition was inactive: -6.95%. For `CN(C(=O)Cc1ccc(Cl)c(Cl)c1)[C@H]1CC[C@@]2(CCCO2)C[C@@H]1N1CCCC1`, the inhibition was inactive: -9.18%. `Cc1ccc(NC(=NP(=O)(N2CCOCC2)N2CCOCC2)N2CCOCC2)cc1` was tested, and the inhibition was inactive: -9.32%. `N#CCCN(C(=O)COC(=O)C(O)(c1ccccc1)c1ccccc1)c1ccc(F)cc1` was tested, and the inhibition was inactive: -5.45%. With `CCOP1(=S)c2c(C)nn(CCC#N)c2N=C(c2ccc(F)cc2)N1C` (stereo not given) the inhibition was inactive: -5.64%. `CN(C(=O)Cc1ccccc1)[C@@H]1CC[C@]2(CCCO2)C[C@H]1N1CCCC1` was tested, and the inhibition was inactive: -10%. For `CS(=O)(=O)c1cc([N+](=O)[O-])c2no[n+]([O-])c2c1`, the inhibition was inactive: 2.17%. For `CCOP1(=S)c2c(C)nn(CCC#N)c2N=C(c2ccccc2F)N1C` (stereo not given), the inhibition was inactive: -7.52%. For `O=P(Nc1nccs1)(c1ccccc1)c1nc2ccccc2s1` (stereo not given), the inhibition was inactive: -8.38%. With `O=P(Nc1nccs1)(Oc1ccccc1)Oc1ccccc1` the inhibition was inactive: -0.47%. For `CC(=O)NC(SC1=NCCS1)C(Cl)(Cl)Cl` (stereo not given), the inhibition was inactive: -24%. With `Nc1ccccc1[As](=O)(O)c1ccccc1` the inhibition was inactive: -1.19%. For `O=C(O)COc1ccc([As](=O)(O)O)cc1[N+](=O)[O-]`, the inhibition was inactive: -5.33%. For `O=C(NC(Sc1ccc(Cl)cc1)C(Cl)(Cl)Cl)c1ccccc1Cl` (stereo not given), the inhibition was inactive: 4%. With `CCCOP(=S)(Nc1nc(N)cc(=O)[nH]1)OCCC` the inhibition was inactive: -4.92%. For `Cc1ccc(NCCc2c([N+](=O)[O-])cc([N+](=O)[O-])cc2[N+](=O)[O-])cc1`, the inhibition was active: 76.7%. For `Nc1cccc2c([As](=O)(O)O)cccc12`, the inhibition was inactive: -5.19%. With `COc1cc(C2NCCC3(OCCO3)C2(C)C)cc(OC)c1OC` (stereo not given) the inhibition was inactive: -5.89%. `CCOP(=O)(Nc1cccc2ccccc12)OCC` was tested, and the inhibition was inactive: -10% and inactive: 5.5%. `COc1cc(C(=O)NCC2(N3CCOCC3)CCCCC2)cc(Cl)c1OC(C)C` was tested, and the inhibition was inactive: -15%. For `O=[As](O)(O)c1cccnc1`, the inhibition was inactive: -10.9%. With `CS(=O)(=O)c1ccc(Cl)c(NC(=O)COC(=O)C(O)(c2ccccc2)c2ccccc2)c1` the inhibition was inactive: 5.69%. In the case of `O=C(OC1CN2CCC1CC2)c1ccc(Cl)cc1` (stereo not given), the inhibition is reported as inactive: -1%. `O=[As](O)(c1cccc(O)c1)c1cccc(O)c1` was tested, and the inhibition was inactive: 6.02%. For `Cc1cccc(OCC(=O)OC2CN3CCC2CC3)c1` (stereo not given), the inhibition was inactive: 7.08%. In the case of `COc1ccccc1CNC(=O)COC(=O)C(O)(c1ccccc1)c1ccccc1`, the inhibition is reported as inactive: -1.84%. For `O=c1[nH]c(SCC(Cl)CSc2ccc([N+](=O)[O-])cc2)nc2ccccc12` (stereo not given), the inhibition was inactive: -4%. In the case of `CC1(CBr)Cn2c(nc3ccccc3c2=O)S1` (stereo not given), the inhibition is reported as inactive: -16.4%. With `CN(C(=O)Cc1ccc(Cl)c(Cl)c1)[C@@H]1CCCC[C@H]1N1CCCC1` the inhibition was inactive: -6.99%. With `CN(CCCl)Cc1cc(Cl)c(NC2=NCCN2)c(Cl)c1` the inhibition was inactive: 14.8%. In the case of `CCOP(=O)(Nc1ccc(C)cn1)OCC`, the inhibition is reported as inactive: -13.5%. With `O=P1(Nc2ccccn2)COc2ccccc2OC1` the inhibition was inactive: 0.85%. `CCC1=CC2Cc3nc4ccc(Cl)cc4c(N)c3C(C1)C2` (stereo not given) was tested, and the inhibition was inactive: 1.61%. `CCOP(=O)(NC(=NC(C)c1ccccc1)NC(C)c1ccccc1)OCC` (stereo not given) was tested, and the inhibition was inactive: -21%. With `CC(C)(C)C(=O)NC(Sc1ncccn1)C(Cl)(Cl)Cl` (stereo not given) the inhibition was inactive: -9.16%. In the case of `O=P1(Nc2ncccn2)COc2ccccc2OC1`, the inhibition is reported as inactive: -5.05%. `O=P1(Nc2ccc(Br)cn2)COc2ccccc2OC1` was tested, and the inhibition was inactive: -12.7%. With `NS(=O)(=O)c1cccc(NC(=O)COC(=O)C(O)(c2ccccc2)c2ccccc2)c1` the inhibition was inactive: 4.65%. With `Cc1ccc(OCC(=O)OC2CN3CCC2CC3)cc1` (stereo not given) the inhibition was inactive: -1.55%. With `O=[As](O)(c1cccs1)c1cccs1` the inhibition was inactive: -1.31%. In the case of `Nc1cccc([As](=O)(O)c2ccccc2)c1`, the inhibition is reported as inactive: 14.1%. `O=c1[nH]c(SCC(Cl)CSc2ccccc2)nc2sc3c(c12)CCC3` (stereo not given) was tested, and the inhibition was inactive: -5%. For `Cc1nn(-c2ccccc2)c2c1P(=O)(N1CCOCC1)N(C)C(c1ccccc1)=N2` (stereo not given), the inhibition was inactive: -8.38%. For `CC1CCC(C(C)C)C(OP(=O)(Nc2ccccn2)c2ccccc2)C1` (stereo not given), the inhibition was inactive: 5.85%. For `Cc1ccc(C(=O)OC2CN3CCC2CC3)cc1` (stereo not given), the inhibition was inactive: -6.94%. `O=C(/C=C/c1ccccc1)OC1CN2CCC1CC2` (stereo not given) was tested, and the inhibition was inactive: -4.28%. With `CCCC1OP(=O)(Nc2ccccc2)OCC1CC` (stereo not given) the inhibition was inactive: -5.67%. In the case of `CN(C)C1(CNC(=O)c2ccc(S(C)(=O)=O)cc2)CCCCC1`, the inhibition is reported as inactive: -3.64%. With `Cc1cc(C)c(C#N)c(SCC(Br)CBr)n1` (stereo not given) the inhibition was inactive: 17%. With `CCOC(=O)Nc1cccc([As](=O)(O)O)c1` the inhibition was inactive: 8.61%. `O=[N+]([O-])c1ccc(Nc2ccc(Oc3ccc([N+](=O)[O-])cc3[N+](=O)[O-])cc2)c([N+](=O)[O-])c1` was tested, and the inhibition was inactive: -18.4%. For `O=P(Nc1ccccn1)(c1cccc2ccccc12)c1cccc2ccccc12`, the inhibition was inactive: -11.7%. In the case of `Cc1cc(SC(NC=O)C(Cl)(Cl)Cl)ncn1` (stereo not given), the inhibition is reported as inactive: 2.39%. With `Cc1sc2nc3n(c(=O)c2c1C)CC(CI)S3` (stereo not given) the inhibition was inactive: 5%. For `CC1CCNP(=O)(N(CCCl)CCCl)O1` (stereo not given), the inhibition was inactive: -7.04%. With `CCOC(=O)Nc1ccc([As](=O)(O)O)c(O)c1` the inhibition was inactive: 1.68%. In the case of `CCCCOc1ccc(C(=O)NCC2(N3CCCCC3)CCCCC2)cc1OC`, the inhibition is reported as inactive: -14.8%. With `COc1ccc(NC(=NP(=O)(N2CCOCC2)N2CCOCC2)N2CCOCC2)cc1` the inhibition was inactive: -9.6% and inactive: -5%. With `Cc1cc(SC(NC(=O)c2ccccc2)C(Cl)(Cl)Cl)nc(C(C)C)n1` (stereo not given) the inhibition was inactive: -4.3%. `CCOC(=O)c1ccc(NC(=O)C(C)(CCl)SC)cc1` (stereo not given) was tested, and the inhibition was inactive: -1.15%. `O=C(OC1CN2CCC1CC2)c1cccc([N+](=O)[O-])c1` (stereo not given) was tested, and the inhibition was inactive: -10.7%. For `CCC(C)N(CC(C)C)C(=S)SC(NC(C)=O)C(Cl)(Cl)Cl` (stereo not given), the inhibition was inactive: 10.6%. In the case of `COP1(=S)c2c(C)nn(CCC#N)c2N=C(c2ccc(F)cc2)N1C` (stereo not given), the inhibition is reported as inactive: 2.15%. In the case of `O=C(COc1ccccc1)OC1CN2CCC1CC2` (stereo not given), the inhibition is reported as inactive: -18.5%. `O=C(Nc1ccncc1[N+](=O)[O-])c1ccc([N+](=O)[O-])cc1[N+](=O)[O-]` was tested, and the inhibition was inactive: -6.42%. For `O=[N+]([O-])c1cc(Oc2ccc([N+](=O)[O-])cc2C(F)(F)F)cc([N+](=O)[O-])c1`, the inhibition was inactive: -4.3%. With `O=P(N=c1nc(-c2ccccc2)n(-c2ccccc2)s1)(N1CCOCC1)N1CCOCC1` the inhibition was inactive: -7%. In the case of `O=C(OC1CN2CCC1CC2)C12CC3CC(CC(C3)C1)C2` (stereo not given), the inhibition is reported as inactive: -12.7%. `Cc1cc(=O)[nH]c(N[N+](=O)[O-])n1` was tested, and the inhibition was inactive: 1.39%. With `Cc1c2c(nc3ccccc13)SC(C(Cl)Cl)C2` (stereo not given) the inhibition was inactive: -38.2%. For `COc1ccc2nc(NP(=O)(c3ccccc3)c3ccccc3)sc2c1`, the inhibition was inactive: -10.3%. In the case of `COc1cc(I)ccc1[As](=O)(O)O`, the inhibition is reported as inactive: -2%. For `O=P1(N(CCCl)CCCl)Nc2ccccc2N1`, the inhibition was inactive: -6.02%. In the case of `O=P1(N(CCCl)CCCl)OCCCN1CCCl` (stereo not given), the inhibition is reported as inactive: -14.4%. With `COC1=NP(OC)(OC)=Nc2c1sc(=NC(=Nc1ccccc1)c1ccc(OC)cc1)n2-c1ccccc1` the inhibition was inactive: -12%. `CC(C)c1ccc(OP(=O)(Nc2ccccn2)Oc2ccccc2F)cc1` (stereo not given) was tested, and the inhibition was inactive: 3.18%. For `COC(=O)C1(C)COP(=O)(N2CCCCCC2)OC1` (stereo not given), the inhibition was inactive: -2.98%. In the case of `ClCCSc1nnc(-c2cccnc2)o1`, the inhibition is reported as inactive: -13.4%. For `CCN(CC)C(=S)SC(NC=O)C(Cl)(Cl)Cl` (stereo not given), the inhibition was inactive: 2.6%. With `O=C(OC1CN2CCC1CC2)c1cccc2[nH]cnc12` (stereo not given) the inhibition was inactive: -9.31%. In the case of `CC(C)NC(=O)NP(=O)(Oc1ccccc1)Oc1ccccc1`, the inhibition is reported as inactive: 4.51%. With `O=[N+]([O-])c1cc([N+](=O)[O-])c(-c2ccn[nH]2)s1` the inhibition was inactive: -2.13%. `O=[As](O)(c1ccc(O)cc1)c1ccccc1O` was tested, and the inhibition was inactive: 3.95%. With `C[As](=O)(O)c1cccc(C(=O)O)c1` the inhibition was inactive: 10.2%. For `COc1cc(C(=O)NCC2(N3CCOCC3)CCCCC2)ccc1OCC(C)C`, the inhibition was inactive: -5.57%. With `O=[N+]([O-])c1ccc(-c2cc([N+](=O)[O-])c(O)c([N+](=O)[O-])c2)cc1` the inhibition was inactive: 3.57%. With `Cc1ccc2nc3c(c(C)c2c1)CC(C(Cl)Cl)S3` (stereo not given) the inhibition was inactive: -4.69%. `Cc1ccc(OP(=O)(Nc2ccc([N+](=O)[O-])cn2)Oc2ccc(C)cc2)cc1` was tested, and the inhibition was inactive: -6.03%.
